{"source": "patent US20260382583A1", "about": "“LPA1 ANTAGONISTS FOR TREATING INTERSTITIAL LUNG DISEASE” (published 2026)", "system": "participants with PPF", "test": "Phase 2 PPF cohort: safety and blood pressure monitoring", "description": "A total of 123 participants with PPF were randomized. Participants (age ≥21 years) were randomized (1:1:1) to receive 30 mg or 60 mg Compound A or PBO twice daily for 26 weeks. […] Immunosuppressive medications (mycophenolate mofetil, mycophenolic acid, azathioprine and/or tacrolimus) were permitted only if dosing is stable for ≥6 months prior to screening. If receiving antifibrotic agents pirfenidone or nintedanib, patients had to receive a stable dosage for ≥3 months prior to screening and during the screening period; if not receiving pirfenidone or nintedanib, patients had to be naive to both drugs or not have received either 4 weeks prior to Day 1. A total of 47 (38.2%) subjects were receiving antifibrotic treatment (with or without immunosuppression therapy). Of those subjects, 34 were being treated with nintedanib and 13 with pirfenidone. Participants were stratified by usual interstitial pneumonia (UIP) pattern (presence versus absence) and background therapy (antifibrotics+/−ILD-targeted immunosuppression versus ILD-targeted immunosuppression alone versus none).UIP pattern was present in 52% of subjects and unclassifiable ILD was the most common disease categorization.\nPatient is experiencing any of the following, confirmed by retest within 15 minutes: • Seated systolic blood pressure <85 mmHg • Seated diastolic blood pressure <55 mmHg • Orthostatic hypotension\nPatient is experiencing symptoms that, in the investigator's opinion, could be associated with a reduction in blood pressure and is also experiencing at least one of the following, confirmed by retest within 15 minutes: • Seated systolic blood pressure <100 mmHg or seated diastolic blood pressure <60 mmHg • Decrease of seated systolic blood pressure of ≥20 mmHg from the previous visit or decrease of seated diastolic blood pressure of ≥10 mmHg from the previous visit • Orthostatic hypotension • Orthostatic tachycardia", "data": [{"smiles": "CCCN(C)C(=O)OCc1c(-c2ccc(O[C@H]3CCC[C@H](C(=O)O)C3)c(C)n2)nnn1C", "values": [{"measurement": "Orthostatic hypotension (asymptomatic and symptomatic)", "setting": "60 mg BID", "result": "higher in the 60 mg group than for other groups"}, {"measurement": "Adverse event profile other than low blood pressure", "setting": "60 mg BID versus placebo", "result": "generally in favor of the 60 mg group versus placebo"}, {"measurement": "Day 1 post-dose reductions in blood pressure", "setting": "PPF cohort", "result": "without clinical consequences"}, {"measurement": "Dose dependent BP findings", "setting": "PPF cohort", "result": "Dose dependent BP findings reaffirm low BP safety risk with Compound A"}, {"measurement": "Tolerability", "setting": "PPF cohort", "result": "well-tolerated, demonstrated no unexpected safety findings"}, {"measurement": "Prespecified blood pressure reduction criteria", "setting": "across PPF cohort arms", "result": "increased in a dose-dependent manner across PPF cohort arms"}, {"measurement": "Day 1 blood pressure reduction", "setting": "similar in magnitude to IPF cohort", "result": "dose dependent day−1 blood pressure reduction"}]}]}
